Values of other authors in paper PMC13507575.

Molecular target: IL-1β (Homo sapiens) (UniProt P01584)

Kd: 0.29 nM
Substance: gevokizumab
